The values below are quoted from earlier work in publication PMC9303367, “Synthesis of Aminoethyl‐Substituted Piperidine Derivatives as σ1 Receptor Ligands with Antiproliferative Properties” (Chemmedchem, 2022).

Chains of the proteins cited; added tags and fusions are not shown.
UniProt Q60492, whole entry: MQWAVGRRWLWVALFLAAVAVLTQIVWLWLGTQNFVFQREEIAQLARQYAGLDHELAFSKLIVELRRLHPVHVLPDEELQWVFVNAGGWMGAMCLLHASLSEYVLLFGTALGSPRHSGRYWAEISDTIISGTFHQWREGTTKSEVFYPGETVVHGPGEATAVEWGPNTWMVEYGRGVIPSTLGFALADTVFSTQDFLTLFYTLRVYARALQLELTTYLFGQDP

The data set concerns the target σ1 receptor (Cavia porcellus, UniProt Q60492). The settings on record: read-out: σ1 affinity K i±SEM; lead compounds 1–3 (enantiomers); cited from earlier work.

As for `c1ccc(CNCC[C@@H]2CCO[C@H](c3ccccc3)O2)cc1`, the Ki is 6 nM.
